# Antibody variant affinities, Ab-91 heavy chain, assay 2

Values reported by Engelhart et al. 2022, doi:10.1038/s41597-022-01779-4 (FLAb copy).

All variants were tested on one target, the spike HR2 peptide PDVDLGDISGINAS (SARS-CoV-2).

Parent scFv Ab-91: VL joined to VH by the linker GGGGSGGGGSGGGGS. Changes lie in the heavy chain CDRs alone.
VL: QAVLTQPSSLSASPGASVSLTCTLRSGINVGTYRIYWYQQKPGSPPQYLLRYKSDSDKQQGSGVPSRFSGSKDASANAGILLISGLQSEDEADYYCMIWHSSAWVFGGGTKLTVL
VH: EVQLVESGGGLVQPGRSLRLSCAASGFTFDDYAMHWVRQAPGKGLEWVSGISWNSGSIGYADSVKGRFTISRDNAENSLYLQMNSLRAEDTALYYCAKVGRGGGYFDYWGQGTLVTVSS

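Phage display of a naive human antibody library on the peptide gave the parent. AAYL51 was designed without a model: most single CDR substitutions and a random sample of double and triple ones. The assay is AlphaSeq: two haploid yeast populations carry antibody and antigen on their surface. After mating in shaken culture at 30 °C for 16 h, diploids were selected and their barcode pairs sequenced. The ratio of observed to expected reads was calibrated, replicate by replicate, on BCL2-family standards whose Kd was known from biolayer interferometry. Each pool was mated in three replicate cultures.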

The parent's heavy chain CDRs are GFTFDDYAMH, GISWNSGSIGYADSVK, VGRGGGYFDY; each variant's own CDRs replace them letter for letter. All variants listed here change V64 of the VH, counted from its first residue. Numbers give log10(Kd / nM), so 0 is 1 nM and 3 is 1 µM. Smaller is tighter. Replicates are averaged; those with no signal do not enter the mean. A pair that was not seen in that replicate is written "nd"; this usually means weak binding, but a binder can also be missed. Three control strains display no target. For library AAYL51, 21% of the pairings with them gave a signal, with a median of 4.54 and one signal in twenty below 3.26, so weak values seen in few replicates may be background.

* GLTFDDYAMH, GISWNSASIGYADSQK, VGRGGGYFDY -> nd, nd, nd
* GFTFDDYAMF, GISWNSGSIGYADSNK, VGRGIGYFDY -> 4.72, 4.46, nd (mean 4.59)
* GFTFDDYIMH, GISWNSGSIGYADTIK, VGRGGGYFDY -> nd, nd, nd
* GFTFDDYAMP, GISWNSGSIGYADSSD, VGRGGGYFDY -> nd, 4.87, nd
* GFTTDDYAMH, GISWNSGSWGYADSWK, VGRGGGYFDY -> nd, nd, nd
* GFTFDDYNMH, NISWNSGSIGYADSSK, VGRGGGYFDY -> nd, nd, nd
* GFTFDKYAMH, GISWNSGSIGYADSSK, VVRGGGYFDY -> nd, nd, nd
* GFTFDDYAMH, GISWNSGSIGYARSYK, VCRGGGYFDY -> nd, nd, nd
* GFTFDDYAMH, GISWNSGSIGYADSAQ, YGRGGGYFDY -> nd, nd, nd
* GFTFDRYAMH, GISWNSGSIGYAMSLK, VGRGGGYFDY -> 1.68, 1.87, 1.71 (mean 1.75)
* GFTFDDYAMH, GISWNSGSIGYADSNK, VVRHGGYFDY -> 3.08, 3.51, 3.18 (mean 3.26)
* GFTFDDYAMH, GHSWNSGSMGYADSYK, VGRGGGYFDY -> nd, nd, nd
* GFTFDDYAMH, GISWNSGSIGYADSYQ, VGRGGGYFDY -> 2.01, 2.05, 1.94 (mean 2.00)
* GFNFDDYAMH, GISWNSGSIGYADSYK, VGRGWGYFDY -> nd, nd, nd
* GFTFDDYAMY, GISWNSGSSGYADSEK, VGRGGGYFDY -> nd, nd, nd
* GFTFDNYAMH, GISWNSGSPGYADSTK, VGRGGGYFDY -> 4.50, 4.98, nd (mean 4.74)
* GFTFDDYAMH, GISWNSGSIGYANSAK, VGAGGGYFDY -> 3.92, 6.38, nd (mean 5.15)
* GFTFDDYAMH, GISWNSGSQGYADSQK, VGRGGGYFCY -> nd, 3.81, nd
* GFVFDDYAMH, GITWNSGSIGYADSYK, VGRGGGYFDY -> 4.64, nd, nd
* GFTFDDYAMH, HISWNGGSIGYADSDK, VGRGGGYFDY -> 3.93, nd, nd
* GFTFDDYAMH, GISWNSGSIDYADSMK, VGRGGAYFDY -> nd, nd, nd
* GFTFIDYAMH, GISWNSGSIGYADSFK, VGRGGGYFDY -> 2.12, 2.30, 1.93 (mean 2.12)
* GFTFDDYAVH, GESWNSGSIGYADSMK, VGRGGGYFDY -> 4.33, nd, nd
* GFTFDDYAMH, GISWNSGSIGYLDSQK, VGRGGGPFDY -> nd, nd, nd
* GFTFDDYAMH, GISWNSGTIGYADSWK, VGRGGGYFDA -> 5.10, 4.72, 6.35 (mean 5.39)
* GFTHDDYAMH, GISWNSGSIGYADSEK, VERGGGYFDY -> nd, nd, 5.35
* QFTFDDYAMH, GISWNDGSIGYADSPK, VGRGGGYFDY -> nd, 5.96, 4.73 (mean 5.34)
* GFTQDDYAMH, GISWNSGSIGYACSTK, VGRGGGYFDY -> nd, nd, 4.66
* GFTFDDYAMH, GISWNSGSIGYADSEM, VGRGGGYFDY -> nd, nd, nd
* GFTFFDNAMH, GISWNSGSIGYADSWK, VGRGGGYFDY -> 4.52, 4.44, 6.26 (mean 5.07)
* GFTFDDYAMH, GISWPSGSIGYADSSK, VGRGGHYFDY -> nd, nd, nd
* GFTFDDYAMH, GISWNSGSIGYADSEK, VMRGGGYFDY -> 4.49, 5.92, 4.48 (mean 4.97)
* GFTFDDKAMH, GISWNSLSIGYADSDK, VGRGGGYFDY -> 3.33, nd, nd
* KFNFDDYAMH, GISWNSGSIGYADSFK, VGRGGGYFDY -> 2.64, 2.56, 3.09 (mean 2.76)
* GFTFDDYAMH, GISWNSGSIGYADSQK, VGRGGHYPDY -> nd, nd, nd
* GFTFDKYAMH, GISWNSGSIGYADSSK, VGRGGGYFDY -> 1.27, 1.42, 0.89 (mean 1.19)
* GFTFDDYAMH, GISWNSGSIGYADSSK, VGRGGGNFDY -> nd, nd, nd
* GFTFDDYAMH, GISWNSCSIGYADSEK, VPRGGGYFDY -> 4.91, nd, nd

The 4 strongest on average among those seen in every replicate, once more:

CDR-H1,CDR-H2,CDR-H3,log10 Kd (nM) by replicate,"mean, log10 nM"
GFTFDKYAMH,GISWNSGSIGYADSSK,VGRGGGYFDY,"1.27, 1.42, 0.89",1.19
GFTFDRYAMH,GISWNSGSIGYAMSLK,VGRGGGYFDY,"1.68, 1.87, 1.71",1.75
GFTFDDYAMH,GISWNSGSIGYADSYQ,VGRGGGYFDY,"2.01, 2.05, 1.94",2.00
GFTFIDYAMH,GISWNSGSIGYADSFK,VGRGGGYFDY,"2.12, 2.30, 1.93",2.12

For reference, the parent read 1.86 as the reference entry and 0.88 as a member of this library.